This experiment deals with T1, glutamate dehydrogenase (GDH) (Homo sapiens, UniProt P00367).
T1 construct: GDH present in post mortem brain tissue; from tissue; host or cells: human post mortem brain: cerebellum (control and multisystem atrophy patient 1), frontal cortex (multisystem atrophy patient 2)
The experiment can be described thus: In vitro leucine activation of membrane bound GDH in post mortem brain tissue. The experiment is classed as biochemical. As to conditions: control cerebellum and multisystem atrophy-multineuron degeneration disease cerebellum and frontal cortex. The source says:
(Table 4) Tissue preparation and GDH determinations were done according to methods previously reported. [A. D. Colon, A. Plaitakis, S. Berl, and D. D. Clark. "The purification and characterization of soluble and particulate Glutamate Dehydrogenase in Rat Brain," Neurochemistry, 1986, 46:1811-1819. The contents of this publication are herein incorporated by reference] […] FIG. 4.

Amino acid sequences for entries named in this document (tags omitted). Residues count along the entry.
UniProt P00367, 54-558: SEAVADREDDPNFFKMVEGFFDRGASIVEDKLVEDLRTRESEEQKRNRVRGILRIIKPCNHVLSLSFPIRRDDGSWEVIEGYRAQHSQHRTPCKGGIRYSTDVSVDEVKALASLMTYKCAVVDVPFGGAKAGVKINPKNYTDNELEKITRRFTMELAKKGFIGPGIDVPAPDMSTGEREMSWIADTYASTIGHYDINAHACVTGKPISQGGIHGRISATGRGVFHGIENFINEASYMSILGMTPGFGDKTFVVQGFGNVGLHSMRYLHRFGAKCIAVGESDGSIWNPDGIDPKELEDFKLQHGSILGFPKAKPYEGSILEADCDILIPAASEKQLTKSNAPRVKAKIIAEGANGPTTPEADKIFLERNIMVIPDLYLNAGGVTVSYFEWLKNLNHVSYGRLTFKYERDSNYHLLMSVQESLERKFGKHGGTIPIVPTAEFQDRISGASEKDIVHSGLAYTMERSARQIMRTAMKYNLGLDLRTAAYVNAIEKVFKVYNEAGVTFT

Experimental findings from patent publication US5028622A, “Administration of amino acids as treatment for neurodegenerative disorders” (Ajinomoto Company, Inc., priority 1989, dated 1991) are described below.

As for `CC(C)C[C@H](N)C(=O)O` [L-leucine], the “activation of GDH” value was “significant activation”.
